Our source for the IC50 values is patent US10086000B2, “Tricyclic compounds as inhibitors of mutant IDH enzymes” (Merck Sharp & Dohme Corp., priority 2014, dated 2018).

Protein sequences, listed by entry. Tags and fused reporters are not part of them.
UniProt O75874, whole entry R132H: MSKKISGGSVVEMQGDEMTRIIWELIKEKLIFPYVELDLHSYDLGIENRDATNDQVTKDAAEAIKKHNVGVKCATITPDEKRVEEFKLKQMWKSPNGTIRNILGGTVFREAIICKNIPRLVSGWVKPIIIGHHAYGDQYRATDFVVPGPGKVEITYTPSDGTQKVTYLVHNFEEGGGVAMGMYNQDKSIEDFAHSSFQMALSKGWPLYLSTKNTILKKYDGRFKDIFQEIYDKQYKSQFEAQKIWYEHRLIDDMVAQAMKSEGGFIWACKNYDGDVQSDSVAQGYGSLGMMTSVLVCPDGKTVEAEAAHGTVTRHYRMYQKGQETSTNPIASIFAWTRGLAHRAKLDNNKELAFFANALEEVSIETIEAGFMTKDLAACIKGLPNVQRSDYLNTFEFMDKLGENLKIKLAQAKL

In this experiment the target is R132H mutant IDH1 enzyme (Homo sapiens (Human), UniProt O75874, R132H). Put plainly: R132H IDH1 Enzymatic Assay. The class given is biochemical. The settings on record: R132H mutant IDH1 enzyme 1.5 nM final; luminescence (Kinase-GLO) readout. (In Kinase-Glo more light means more ATP remaining.)

By IC50 is commonly meant the point on the concentration scale where inhibition reaches its midpoint. Read a low IC50 as higher potency.

The structures appear in SMILES notation.

The compound `O=C([C@H]1CC2CCC1C2)N1Cc2cccnc2Nc2ccccc21` (stereo partly drawn) [Example 16, 6-[(2S)-bicyclo[2.2.1]hept-2-ylcarbonyl]-6,11-dihydro-5H-pyrido[2,3-b][1,5]benzodiazepine] displayed a half-inhibitory concentration (IC50) of 8850 nM.
To `O=C(N1Cc2cccnc2Nc2ccc(N3CCOCC3)cc21)C12CCC(CC1)C2` [Example 17, 6-(bicyclo[2.2.1]hept-1-ylcarbonyl)-8-morpholin-4-yl-6,11-dihydro-5H-pyrido[2,3-b][1,5]benzodiazepine] belongs 1750 nM; to `O=C(C1CC2C(C1)C2(F)F)N1Cc2cccnc2Nc2ccc(N3CCOCC3)cc21` (stereo not drawn) [Example 18, 6-[(6,6-difluorobicyclo[3.1.0]hex-3-yl)carbonyl]-8-morpholin-4-yl-6,11-dihydro-5H-pyrido[2,3-b][1,5]benzodiazepine], 218 nM; to `O=C([C@H]1C[C@@H]2[C@H](C1)C2(F)F)N1Cc2cccnc2Nc2ccc(N3CCOCC3)cc21` [Example 19, 6-{[(1R,3r,5S)-6,6-difluorobicyclo[3.1.0]hex-3-yl]carbonyl}-8-morpholin-4-yl-6,11-dihydro-5H-pyrido[2,3-b][1,5]benzodiazepine], 148 nM.
`O=C(C1CCc2ccccc2C1)N1Cc2cccnc2Nc2ccccc21` (stereo not drawn) [Example 21, 6-(1,2,3,4-tetrahydronaphthalen-2-ylcarbonyl)-6,11-dihydro-5H-pyrido[2,3-b][1,5]benzodiazepine]: 440 nM corresponded to half-maximal inhibition (IC50).
With `COC(=O)C12CCC(C(=O)N3Cc4cccnc4Nc4ccccc43)(CC1)CC2` [Example 22, methyl 4-(5,11-dihydro-6H-pyrido[2,3-b][1,5]benzodiazepin-6-ylcarbonyl)bicyclo[2.2.2]octane-1-carboxylate] the figure was 2170 nM.
In the case of `CC1(C(=O)N2Cc3cccnc3Nc3ccccc32)CCc2ccccc2C1` (stereo not drawn) [Example 23, 6-[(2-methyl-1,2,3,4-tetrahydronaphthalen-2-yl)carbonyl]-6,11-dihydro-5H-pyrido[2,3-b][1,5]benzodiazepine], the IC50 turned out to be 611 nM.
To `O=C(N1Cc2cccnc2Nc2ccccc21)C12CCC(CC1)CC2` [Example 24, 6-(bicyclo[2.2.2]oct-1-ylcarbonyl)-6,11-dihydro-5H-pyrido[2,3-b][1,5]benzodiazepine] belongs 1060 nM; to `O=C(N1Cc2cccnc2Nc2ccccc21)[C@]12C[C@H]3C[C@H](C[C@H](C3)C1)C2` [Example 25, 6-[(3s,5s,7s)-tricyclo[3.3.1.1~3,7~]dec-1-ylcarbonyl]-6,11-dihydro-5H-pyrido[2,3-b][1,5]benzodiazepine], 864 nM; to `N#CC12C=CC(C(=O)N3Cc4cccnc4Nc4ccccc43)(CC1)CC2` [Example 26, 4-(5,11-dihydro-6H-pyrido[2,3-b][1,5]benzodiazepin-6-ylcarbonyl)bicyclo[2.2.2]oct-2-ene-1-carbonitrile], 860 nM.
To `CC(=O)C12C=CC(C(=O)N3Cc4cccnc4Nc4ccccc43)(CC1)CC2` [Example 27, 1-[4-(5,11-dihydro-6H-pyrido[2,3-b][1,5]benzodiazepin-6-ylcarbonyl)bicyclo[2.2.2]oct-2-en-1-yl]ethanone] belongs 1440 nM; to `CCCCC[C@]12CC[C@](C(=O)N3Cc4cccnc4Nc4ccccc43)(CC1)CC2` [Example 28, 6-[(4-pentylbicyclo[2.2.2]oct-1-yl)carbonyl]-6,11-dihydro-5H-pyrido[2,3-b][1,5]benzodiazepine], 563 nM; to `O=C(N1Cc2cccnc2Nc2ccccc21)C12CCCC(C1)C2` [Example 29, 6-(bicyclo[3.1.1]hept-1-ylcarbonyl)-6,11-dihydro-5H-pyrido[2,3-b][1,5]benzodiazepine], 1050 nM.
To `O=C(C1CC2CCC(C1)C2(F)F)N1Cc2cccnc2Nc2ccccc21` (stereo not drawn) [Example 30, 6-[(8,8-difluorobicyclo[3.2.1]oct-3-yl)carbonyl]-6,11-dihydro-5H-pyrido[2,3-b][1,5]benzodiazepine] belongs 1770 nM; to `O=C(N1Cc2cccnc2Nc2ccc(N3CCOCC3)cc21)C12CC3CC(CC(F)(C3)C1)C2` [Example 31, 6-[(3-fluorotricyclo[3.3.1.1~3,7~]dec-1-yl)carbonyl]-8-morpholin-4-yl-6,11-dihydro-5H-pyrido[2,3-b][1,5]benzodiazepine], 225 nM; to `O=C(N1Cc2cccnc2Nc2ccc(N3CCOCC3)cc21)C12CC3CC(F)(CC(F)(C3)C1)C2` [Example 32, 6-[(3,5-difluorotricyclo[3.3.1.1~3,7~]dec-1-yl)carbonyl]-8-morpholin-4-yl-6,11-dihydro-5H-pyrido[2,3-b][1,5]benzodiazepine], 97 nM.
Regarding `O=C([C@@H]1CC[C@@H]2OCC[C@@H]2C1)N1Cc2cccnc2Nc2ccc(N3CCOCC3)cc21` [Example 36, 8-morpholin-4-yl-6-[(3aS,5R,7aS)-octahydro-1-benzofuran-5-ylcarbonyl]-6,11-dihydro-5H-pyrido[2,3-b][1,5]benzodiazepine], the midpoint of inhibition, the IC50, lay at 2310 nM.
With `O=C([C@H]1CC[C@H]2OCC[C@H]2C1)N1Cc2cccnc2Nc2ccc(N3CCOCC3)cc21` [Example 37, 8-morpholin-4-yl-6-[(3aR,5S,7aR)-octahydro-1-benzofuran-5-ylcarbonyl]-6,11-dihydro-5H-pyrido[2,3-b][1,5]benzodiazepine] the figure was 2360 nM; with `O=C(C1COc2ccccc2O1)N1Cc2cccnc2Nc2ccc(N3CCOCC3)cc21` (stereo not drawn) [Example 40, 6-(2,3-dihydro-1,4-benzodioxin-2-ylcarbonyl)-8-morpholin-4-yl-6,11-dihydro-5H-pyrido[2,3-b][1,5]benzodiazepine], 171 nM.
To `O=C(C1CCc2ccccc2O1)N1Cc2cccnc2Nc2ccc(N3CCOCC3)cc21` (stereo not drawn) [Example 41, 6-(3,4-dihydro-2H-chromen-2-ylcarbonyl)-8-morpholin-4-yl-6,11-dihydro-5H-pyrido[2,3-b][1,5]benzodiazepine] belongs 95 nM.
With `O=C([C@H]1COc2ccccc2O1)N1Cc2cccnc2Nc2ccc(N3CCOCC3)cc21` [Example 42, 6-[(2R)-2,3-dihydro-1,4-benzodioxin-2-ylcarbonyl]-8-morpholin-4-yl-6,11-dihydro-5H-pyrido[2,3-b][1,5]benzodiazepine] the figure was 87 nM; with `O=C([C@@H]1COc2ccccc2O1)N1Cc2cccnc2Nc2ccc(N3CCOCC3)cc21` [Example 43, 6-[(2S)-2,3-dihydro-1,4-benzodioxin-2-ylcarbonyl]-8-morpholin-4-yl-6,11-dihydro-5H-pyrido[2,3-b][1,5]benzodiazepine], 626 nM; with `CCCOc1ccc2c(c1)OCC(C(=O)N1Cc3cccnc3Nc3ccc(N4CCOCC4)cc31)C2` (stereo not drawn) [Example 44, 8-morpholin-4-yl-6-[(7-propoxy-3,4-dihydro-2H-chromen-3-yl)carbonyl]-6,11-dihydro-5H-pyrido[2,3-b][1,5]benzodiazepine], 626 nM.
On to `O=C([C@H]1CC[C@@H]2OCCC[C@H]2C1)N1Cc2cccnc2Nc2ccc(N3CCOCC3)cc21` [Example 47, 8-morpholin-4-yl-6-[(4aS,6S,8aS)-octahydro-2H-chromen-6-ylcarbonyl]-6,11-dihydro-5H-pyrido[2,3-b][1,5]benzodiazepine], for which the 50% inhibitory concentration (IC50) worked out at 11000 nM.
